From ChEMBL document CHEMBL1126846, “Two new unsaturated fatty acid ethanolamides in brain that bind to the cannabinoid receptor” (J Med Chem, 1993)

Sequences of proteins named here, by UniProt entry; tags and fusion partners are left off. A change or cut given only in a name is not applied to a line headed by its entry.
UniProt P47746: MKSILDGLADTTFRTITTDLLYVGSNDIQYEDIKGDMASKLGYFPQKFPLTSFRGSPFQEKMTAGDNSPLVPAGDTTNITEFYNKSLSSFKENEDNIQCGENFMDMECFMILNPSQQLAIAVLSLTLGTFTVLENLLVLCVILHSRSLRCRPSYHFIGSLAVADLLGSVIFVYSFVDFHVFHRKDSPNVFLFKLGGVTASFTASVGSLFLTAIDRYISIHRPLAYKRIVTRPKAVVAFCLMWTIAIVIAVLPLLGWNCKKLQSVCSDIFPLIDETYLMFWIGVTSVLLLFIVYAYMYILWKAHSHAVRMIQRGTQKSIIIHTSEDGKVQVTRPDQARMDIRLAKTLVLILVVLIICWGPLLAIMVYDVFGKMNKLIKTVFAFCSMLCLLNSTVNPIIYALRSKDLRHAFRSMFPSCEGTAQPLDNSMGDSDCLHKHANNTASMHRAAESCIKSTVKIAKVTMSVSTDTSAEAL
UniProt P47936: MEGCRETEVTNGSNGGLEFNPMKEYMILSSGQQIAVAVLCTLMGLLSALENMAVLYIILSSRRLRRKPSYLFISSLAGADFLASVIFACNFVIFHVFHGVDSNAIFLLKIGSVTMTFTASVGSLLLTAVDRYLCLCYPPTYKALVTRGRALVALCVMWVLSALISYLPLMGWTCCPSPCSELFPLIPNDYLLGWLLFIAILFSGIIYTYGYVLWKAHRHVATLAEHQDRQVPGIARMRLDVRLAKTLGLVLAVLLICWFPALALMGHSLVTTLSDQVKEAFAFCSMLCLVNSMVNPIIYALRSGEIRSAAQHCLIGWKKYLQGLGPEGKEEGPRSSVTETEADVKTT

Molecular target: Cannabinoid receptor (Mus musculus, UniProt P47746+P47936)
Assay: Ability to displace [3H]HU-243 binding to cannabinoid receptor in synaptosomal membrane
Assay type: cell membranes

For `CCCCC/C=C\C/C=C\C/C=C\C/C=C\CCCC(=O)NCCO` [ANANDAMIDE], which Ki is on record?
Its Ki is 52 nM.
